# Results as given in PubChem BioAssay AID1471 (National Center for Advancing Translational Sciences (NCATS), 2008).
# Hit rate of the full screen: of about 230,000 compounds, about 310 (0.13%) were called active. Only results without a clear call are listed here; the source files them as inconclusive. The call rests on the fitted dose curve; in most records, active means well fitted activation curve with a large enough effect; inconclusive means small, poorly fitted or top-dose-only effect; inactive means no such curve, though single readings can be large or run the other way.
# Experiment: qHTS Multiplex Assay to Identify Dual Action Probes in a Cell Model of Huntington: Cytoprotection (ATP); further: nearly all actives have a fitted effect of over 45% in size
# Settings: PC12 HTT-Q103 induced, ATP luminescence, 40 h
# Excerpt: NIH Chemical Genomics Center [NCGC]
# NIH Molecular Libraries Probe Production centers Network [MLPCN]
# Assay Submitter (PI): Wei Zheng
# Huntington's disease is a neurodegenerative disorder caused by a trinucleotide repeat expansion in Exon 1 of the Huntingtin gene. The CAG trinucleotide encodes glutamine and polyglutamine expansions cause cell death in selective areas of the brain. Huntington polyglutamine repeats have the tendency to form aggregates which are observable in later stages of the disease. The exact nature of the aggregates, whether toxic, protective, or insignificant, is unclear.
# A stable PC12 cell line containing a gene fusion of Exon 1 of the Huntingtin gene linked to GFP under the control of the inducible ecdysone promoter were used as the cell-based model of Huntington Disease for high throughput screening. Exon 1 of the Huntingtin gene contained an expansion of 103 polyglutamines (Q103) which, when expressed, caused cell death and distinct, bright GFP aggregates. The amount of cell death and the size and intensity of GFP aggregates increased over time and induction level. The cell death were quantified with a measurement of ATP content in the cells. A maximal 40-50% of cell death was observed when the Huntington gene was induced in this cell line.
# We optimized this assay in a homogeneous 1536 well format. A quantitative high throughput screen (qHTS) was conducted on the PC12 cells which were induced to express the toxic fusion construct. Small molecules which prevented cell death were identified by using a luminescent ATP quantification method (Perkin Elmer's ATPlite).
# PC12 cells stably containing a construct with an ecdysone inducible promoter expressing GFP fused to the exon 1 of HTTQ103 (Huntington protein which containing a 103 ployglutamine expansion) were used.
# NCGC Assay Protocol Summary:
# Sequence, Parameter, Description
# 1, Reagent, 5 uL 1500 cells/well 1536 TC treated White clear bottom plate
# 2, Compound, 23 nL Tebufenozide inducer (100 nM final) to all columns
# 3, Compound, 23 nL 40 uM to 0.5 nM Libraries
# 5, Reagent, 5 ul ATPLite cell death assay reagent […]
# Potency means the concentration at half of the fitted maximal effect.
row,Structure (SMILES),Potency
1,Cc1ccc(NCCc2c([N+](=O)[O-])cc([N+](=O)[O-])cc2[N+](=O)[O-])cc1,inconclusive: 0.447 µM
2,O=[N+]([O-])CC(O)c1ccc([N+](=O)[O-])cc1 (stereo not drawn),inconclusive: 12.6 µM
3,NC(=O)Nc1ccc([As](=O)(O)O)cc1,inconclusive: 12.6 µM
